Sequences of proteins named here, by UniProt entry; tags and fusion partners are left off. A change or cut given only in a name is not applied to a line headed by its entry.
UniProt Q02763: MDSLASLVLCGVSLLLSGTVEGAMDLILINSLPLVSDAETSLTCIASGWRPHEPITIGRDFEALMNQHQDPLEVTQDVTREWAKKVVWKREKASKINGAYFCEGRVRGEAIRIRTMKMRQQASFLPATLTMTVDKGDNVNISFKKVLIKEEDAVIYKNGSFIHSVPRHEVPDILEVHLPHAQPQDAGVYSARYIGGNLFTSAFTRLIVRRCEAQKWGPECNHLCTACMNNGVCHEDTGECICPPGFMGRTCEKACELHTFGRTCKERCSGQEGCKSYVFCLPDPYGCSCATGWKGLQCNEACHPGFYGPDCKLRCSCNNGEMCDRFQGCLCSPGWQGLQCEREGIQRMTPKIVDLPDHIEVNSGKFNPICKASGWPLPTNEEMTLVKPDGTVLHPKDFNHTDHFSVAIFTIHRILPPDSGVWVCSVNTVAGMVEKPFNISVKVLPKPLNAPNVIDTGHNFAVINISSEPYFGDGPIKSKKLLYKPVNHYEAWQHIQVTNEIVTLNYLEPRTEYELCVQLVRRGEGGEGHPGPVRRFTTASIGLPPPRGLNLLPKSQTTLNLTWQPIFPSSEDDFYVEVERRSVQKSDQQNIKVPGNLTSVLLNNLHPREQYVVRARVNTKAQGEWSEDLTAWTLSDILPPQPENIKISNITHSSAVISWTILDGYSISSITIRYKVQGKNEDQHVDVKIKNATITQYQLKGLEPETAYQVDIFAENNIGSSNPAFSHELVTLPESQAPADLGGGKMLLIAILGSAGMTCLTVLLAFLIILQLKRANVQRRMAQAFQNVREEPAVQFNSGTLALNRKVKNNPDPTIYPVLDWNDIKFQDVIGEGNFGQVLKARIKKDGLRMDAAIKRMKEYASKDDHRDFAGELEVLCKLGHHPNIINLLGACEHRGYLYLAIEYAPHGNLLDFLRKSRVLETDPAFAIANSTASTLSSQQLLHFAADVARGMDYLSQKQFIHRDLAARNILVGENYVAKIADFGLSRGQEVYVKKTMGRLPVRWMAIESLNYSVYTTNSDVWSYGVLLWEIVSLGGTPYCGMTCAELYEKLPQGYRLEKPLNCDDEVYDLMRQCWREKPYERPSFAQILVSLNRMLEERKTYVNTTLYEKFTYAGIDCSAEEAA
UniProt P16591: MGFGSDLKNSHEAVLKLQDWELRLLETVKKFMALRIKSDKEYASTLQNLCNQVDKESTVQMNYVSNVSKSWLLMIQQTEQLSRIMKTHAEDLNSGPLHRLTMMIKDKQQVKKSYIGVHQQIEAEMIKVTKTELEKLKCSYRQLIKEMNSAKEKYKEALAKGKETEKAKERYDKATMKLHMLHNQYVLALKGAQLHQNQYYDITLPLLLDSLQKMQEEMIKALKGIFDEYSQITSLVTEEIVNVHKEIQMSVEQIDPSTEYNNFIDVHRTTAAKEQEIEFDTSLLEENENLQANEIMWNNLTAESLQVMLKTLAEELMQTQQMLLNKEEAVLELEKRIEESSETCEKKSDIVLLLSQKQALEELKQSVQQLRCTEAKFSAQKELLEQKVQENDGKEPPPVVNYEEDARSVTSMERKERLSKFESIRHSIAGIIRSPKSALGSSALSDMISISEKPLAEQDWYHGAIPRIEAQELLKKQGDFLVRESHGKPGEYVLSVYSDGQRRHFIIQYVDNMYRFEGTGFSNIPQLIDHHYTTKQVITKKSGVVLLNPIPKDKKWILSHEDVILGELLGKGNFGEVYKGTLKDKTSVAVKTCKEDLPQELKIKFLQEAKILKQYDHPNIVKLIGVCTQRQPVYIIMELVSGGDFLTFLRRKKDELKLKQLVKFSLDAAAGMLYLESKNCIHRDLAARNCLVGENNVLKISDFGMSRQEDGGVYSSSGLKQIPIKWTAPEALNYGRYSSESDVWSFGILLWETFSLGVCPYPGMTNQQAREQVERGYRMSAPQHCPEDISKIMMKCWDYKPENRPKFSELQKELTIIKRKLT
UniProt Q9BYT3: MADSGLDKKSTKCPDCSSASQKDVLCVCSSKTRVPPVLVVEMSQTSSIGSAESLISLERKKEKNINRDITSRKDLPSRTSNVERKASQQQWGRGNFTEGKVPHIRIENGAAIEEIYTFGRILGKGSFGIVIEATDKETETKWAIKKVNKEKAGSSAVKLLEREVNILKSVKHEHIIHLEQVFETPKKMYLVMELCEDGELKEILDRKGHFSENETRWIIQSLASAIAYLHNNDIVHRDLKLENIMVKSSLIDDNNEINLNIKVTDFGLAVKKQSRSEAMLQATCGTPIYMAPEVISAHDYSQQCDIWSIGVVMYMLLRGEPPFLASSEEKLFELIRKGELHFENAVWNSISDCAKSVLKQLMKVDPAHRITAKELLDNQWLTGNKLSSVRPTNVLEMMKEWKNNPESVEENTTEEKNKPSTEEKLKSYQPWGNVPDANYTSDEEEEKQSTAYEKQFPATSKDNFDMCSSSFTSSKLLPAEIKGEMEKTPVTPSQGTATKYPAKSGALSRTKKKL
UniProt P28482, whole entry: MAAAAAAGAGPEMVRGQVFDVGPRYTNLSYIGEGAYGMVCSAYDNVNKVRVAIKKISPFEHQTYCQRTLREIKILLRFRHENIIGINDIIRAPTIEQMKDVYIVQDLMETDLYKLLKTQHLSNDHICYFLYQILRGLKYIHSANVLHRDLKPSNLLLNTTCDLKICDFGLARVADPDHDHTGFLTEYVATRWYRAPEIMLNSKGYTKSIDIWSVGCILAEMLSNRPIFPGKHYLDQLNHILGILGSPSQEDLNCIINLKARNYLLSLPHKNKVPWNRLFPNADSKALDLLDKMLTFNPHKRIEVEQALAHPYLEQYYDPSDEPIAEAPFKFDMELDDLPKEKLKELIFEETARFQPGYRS

According to the supplement of paper PMC11403291:

Tests used:
Assay in all cases: apparent dissociation constant pKd app (kinobead competition) (-log10(M)); higher = stronger binding
TEK = TEK (UniProt Q02763)
FER = FER (UniProt P16591)
ICK = target: T1, ICK (UniProt Q9UPZ9)
T1 sequence (whole entry): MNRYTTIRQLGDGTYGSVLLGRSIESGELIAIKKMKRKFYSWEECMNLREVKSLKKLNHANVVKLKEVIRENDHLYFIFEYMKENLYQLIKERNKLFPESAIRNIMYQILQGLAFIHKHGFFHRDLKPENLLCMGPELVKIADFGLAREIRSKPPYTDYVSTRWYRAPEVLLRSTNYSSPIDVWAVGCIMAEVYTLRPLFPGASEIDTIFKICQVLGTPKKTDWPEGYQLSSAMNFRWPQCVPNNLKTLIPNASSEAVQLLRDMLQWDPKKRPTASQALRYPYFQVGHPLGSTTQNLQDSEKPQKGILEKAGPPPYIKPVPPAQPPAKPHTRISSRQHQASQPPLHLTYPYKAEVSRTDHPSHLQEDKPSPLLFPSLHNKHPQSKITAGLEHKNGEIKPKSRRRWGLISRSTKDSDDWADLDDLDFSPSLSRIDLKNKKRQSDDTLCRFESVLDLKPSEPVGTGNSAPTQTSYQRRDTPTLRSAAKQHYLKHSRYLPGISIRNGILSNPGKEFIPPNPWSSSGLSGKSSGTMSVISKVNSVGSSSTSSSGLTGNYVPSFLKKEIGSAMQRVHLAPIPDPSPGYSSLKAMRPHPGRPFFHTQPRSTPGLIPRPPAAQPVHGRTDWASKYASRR

ACVR1 = target: T2, ACVR1 (UniProt Q04771)
T2 sequence (whole entry): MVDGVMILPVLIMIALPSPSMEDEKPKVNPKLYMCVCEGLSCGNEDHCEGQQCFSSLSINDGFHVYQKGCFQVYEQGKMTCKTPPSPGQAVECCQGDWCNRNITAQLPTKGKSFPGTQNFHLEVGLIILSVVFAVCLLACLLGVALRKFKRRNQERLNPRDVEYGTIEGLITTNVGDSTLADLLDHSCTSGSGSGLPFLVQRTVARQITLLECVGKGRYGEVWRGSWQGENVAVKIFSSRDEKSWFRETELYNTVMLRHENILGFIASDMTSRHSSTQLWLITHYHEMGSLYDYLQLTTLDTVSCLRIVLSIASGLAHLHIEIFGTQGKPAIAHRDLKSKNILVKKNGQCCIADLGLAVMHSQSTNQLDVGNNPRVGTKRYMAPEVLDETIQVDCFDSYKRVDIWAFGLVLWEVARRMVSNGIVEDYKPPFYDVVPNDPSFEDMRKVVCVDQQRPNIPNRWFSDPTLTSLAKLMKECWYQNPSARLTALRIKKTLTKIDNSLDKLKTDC

STK17A = target: T3, STK17A (UniProt Q9UEE5)
T3 sequence (whole entry): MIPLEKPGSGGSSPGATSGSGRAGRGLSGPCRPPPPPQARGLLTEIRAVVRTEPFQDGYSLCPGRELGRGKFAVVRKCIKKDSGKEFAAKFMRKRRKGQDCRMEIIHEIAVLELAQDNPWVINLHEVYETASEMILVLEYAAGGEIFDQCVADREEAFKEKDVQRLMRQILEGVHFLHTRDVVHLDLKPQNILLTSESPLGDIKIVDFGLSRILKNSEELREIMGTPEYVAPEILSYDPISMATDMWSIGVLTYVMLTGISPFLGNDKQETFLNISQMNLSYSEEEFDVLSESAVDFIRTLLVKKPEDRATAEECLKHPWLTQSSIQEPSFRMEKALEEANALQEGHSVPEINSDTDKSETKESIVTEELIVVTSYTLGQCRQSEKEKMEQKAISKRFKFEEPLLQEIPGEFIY

STK33 = STK33 (UniProt Q9BYT3)
MAPK1 = MAPK1 (UniProt P28482)
PIP4K2B = target: T4, PIP4K2B (UniProt P78356)
T4 sequence (whole entry): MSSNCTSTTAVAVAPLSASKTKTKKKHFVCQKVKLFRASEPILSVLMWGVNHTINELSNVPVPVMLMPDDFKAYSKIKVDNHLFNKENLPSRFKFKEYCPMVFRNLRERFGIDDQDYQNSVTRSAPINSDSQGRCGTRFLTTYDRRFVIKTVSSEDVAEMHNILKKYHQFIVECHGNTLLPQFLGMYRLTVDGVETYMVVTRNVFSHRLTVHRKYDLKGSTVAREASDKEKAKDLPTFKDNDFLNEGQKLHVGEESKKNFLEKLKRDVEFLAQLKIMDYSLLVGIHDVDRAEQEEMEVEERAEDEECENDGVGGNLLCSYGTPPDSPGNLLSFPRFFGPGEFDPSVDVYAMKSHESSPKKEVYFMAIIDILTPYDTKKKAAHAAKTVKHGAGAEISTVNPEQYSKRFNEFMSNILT

apparent dissociation constant pKd app (-log10) (TEK)	apparent dissociation constant pKd app (-log10) (FER)	apparent dissociation constant pKd app (-log10) (ICK)	apparent dissociation constant pKd app (-log10) (ACVR1)	apparent dissociation constant pKd app (-log10) (STK17A)	apparent dissociation constant pKd app (-log10) (STK33)	apparent dissociation constant pKd app (-log10) (MAPK1)	apparent dissociation constant pKd app (-log10) (PIP4K2B)	SMILES
< 4.6	< 4.7	< 4.7	< 4.8	< 4.6	< 4.7	< 4.6	< 4.5	O=C(c1cc(Cc2n[nH]c(=O)c3ccccc23)ccc1F)N1CCN(C(=O)C2CC2)CC1 [Olaparib]
< 4.6	< 4.7	< 4.7	< 4.8	< 4.6	< 4.7	< 4.6	< 4.5	NC(=O)c1cccc2cn(-c3ccc([C@@H]4CCCNC4)cc3)nc12 [Niraparib]
< 4.6	< 4.7	< 4.7	< 4.8	< 4.6	< 4.7	< 4.6	< 4.5	Cn1ncnc1[C@H]1c2n[nH]c(=O)c3cc(F)cc(c23)N[C@@H]1c1ccc(F)cc1 [Talazoparib]
